Experimental data as given in PMC8580838.

The chains behind the UniProt entries cited, without tags or fusion partners. Where a name states a change or a piece, a line headed by the entry shows the natural chain unless it says otherwise.
UniProt A1Z1Q3: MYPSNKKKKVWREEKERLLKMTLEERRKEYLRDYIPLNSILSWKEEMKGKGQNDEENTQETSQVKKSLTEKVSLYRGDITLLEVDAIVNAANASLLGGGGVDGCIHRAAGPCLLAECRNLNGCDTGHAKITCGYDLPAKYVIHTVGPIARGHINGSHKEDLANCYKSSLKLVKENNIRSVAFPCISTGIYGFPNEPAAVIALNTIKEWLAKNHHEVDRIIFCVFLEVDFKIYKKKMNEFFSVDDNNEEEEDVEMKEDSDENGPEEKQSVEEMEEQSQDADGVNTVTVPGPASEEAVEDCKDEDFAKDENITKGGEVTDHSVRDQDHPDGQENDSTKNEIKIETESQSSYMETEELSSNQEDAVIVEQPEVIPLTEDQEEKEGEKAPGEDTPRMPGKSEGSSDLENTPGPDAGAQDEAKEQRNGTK

Target: MARylated YFP-GAP
Test: FRET or BRET

Substance: CFP-MDO2 (from UniProt A1Z1Q3 1-425) (enzyme)
- pKd: 6.18

pKd: −log10 of the molar value.
